Article PMC6332004, “Transport of Twelve Coumarins from Angelicae Pubescentis Radix across a MDCK-pHaMDR Cell Monolayer—An in Vitro Model for Blood-Brain Barrier Permeability” (Molecules, 2015)

System: MDCK-pHaMDR cell monolayer
Assay: Bidirectional transport across MDCK-pHaMDR cell monolayer (in vitro BBB model)
Details: well-absorbed Papp >1 × 10^−5 cm/s, poorly absorbed <1 × 10^−6 cm/s

Row | absorption class through the BBB according to Papp AP-BL | SMILES
1 | moderately absorbed | CC(C)=CCOc1c2ccoc2cc2oc(=O)ccc12 [Compound 10, isoimperatorin]
2 | moderately absorbed | C/C=C(/C)C(=O)OC(C)(C)[C@@H]1Cc2c(ccc3ccc(=O)oc23)O1 [Compound 11, columbianadin]
